The subject of the test is androgen receptor (AR). Description: Quantitative RT-PCR of AR target genes (PSA, hK2, TMPRSS2) in 22Rv1 cells.

Take `CNC(=O)c1ccc(N2C(=S)N(c3ccc(C#N)c(C(F)(F)F)c3)C(=O)C2(C)C)cc1F` [enzalutamide]: where the note is “1 nM DHT, 10 μM bicalutamide or 1 μM enzalutamide”, the “androgen-mediated activation of the AR target genes PSA and hK2” value is “able to antagonize”. The “constitutive, androgen-independent expression of PSA and hK2” value (castrate conditions) is “not by manipulations that block full-length AR”.

Values taken from patent US20140206748A1, “COMPOSITIONS AND METHODS RELATED TO PROSTATE CANCER” (Regents of the University of Minnesota, priority 2013, published 2014).
